Among the data in US20240360134A1, “PYRAZOLOPYRIMIDINES AND THEIR USES AS PDGFR INHIBITORS” (priority 2021, published 2024) are IC50 values, retold here.

By UniProt entry, the sequences of proteins in these tests, tags left out.
UniProt P09619, whole entry, looked up: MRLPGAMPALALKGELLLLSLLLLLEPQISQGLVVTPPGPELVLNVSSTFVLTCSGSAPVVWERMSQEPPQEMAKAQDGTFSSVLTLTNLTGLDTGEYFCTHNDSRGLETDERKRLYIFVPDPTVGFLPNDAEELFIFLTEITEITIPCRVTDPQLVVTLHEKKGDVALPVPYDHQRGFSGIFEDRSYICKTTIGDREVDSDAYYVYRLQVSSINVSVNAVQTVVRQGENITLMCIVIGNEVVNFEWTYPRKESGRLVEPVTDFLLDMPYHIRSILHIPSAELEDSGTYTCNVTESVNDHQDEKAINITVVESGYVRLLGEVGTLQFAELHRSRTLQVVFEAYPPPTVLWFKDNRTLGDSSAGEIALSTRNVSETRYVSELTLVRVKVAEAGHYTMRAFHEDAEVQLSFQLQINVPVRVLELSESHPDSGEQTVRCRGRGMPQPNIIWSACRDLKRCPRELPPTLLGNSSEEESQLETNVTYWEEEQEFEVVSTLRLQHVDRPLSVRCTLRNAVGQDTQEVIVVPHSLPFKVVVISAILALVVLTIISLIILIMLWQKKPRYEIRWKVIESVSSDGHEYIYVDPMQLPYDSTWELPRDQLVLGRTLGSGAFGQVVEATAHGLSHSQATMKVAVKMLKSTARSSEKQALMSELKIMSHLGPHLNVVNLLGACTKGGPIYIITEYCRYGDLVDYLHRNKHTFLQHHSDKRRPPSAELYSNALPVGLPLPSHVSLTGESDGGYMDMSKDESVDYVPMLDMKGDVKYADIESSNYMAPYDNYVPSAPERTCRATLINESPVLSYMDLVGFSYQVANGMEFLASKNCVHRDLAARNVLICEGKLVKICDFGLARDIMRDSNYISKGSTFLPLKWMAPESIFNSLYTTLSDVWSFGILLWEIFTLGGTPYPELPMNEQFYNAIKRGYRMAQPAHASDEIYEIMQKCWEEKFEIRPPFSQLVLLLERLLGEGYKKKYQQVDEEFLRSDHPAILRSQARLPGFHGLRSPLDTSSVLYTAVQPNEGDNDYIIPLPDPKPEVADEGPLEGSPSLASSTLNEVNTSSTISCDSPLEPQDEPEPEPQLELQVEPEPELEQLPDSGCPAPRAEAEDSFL

The target of assay [1] is His6-TEV-PDGFRβ (557-1016) (Homo sapiens (Human), UniProt P09619). Briefly: PDGFRβ HTRF Assay. The format is biochemical. As to the method: Instrumentation: a. Compound liquid handling: LabCyte Echo; b. Reagent liquid handling: Thermo Scientific Multidrop Combi; c. BMG PHERAStar multilabel plate reader.
Protein Reagent: His6-TEV-PDGFRβ Protein Prep prepared at Accelagen.
Assay buffer stock solution, contains 50 mM Hepes, 10 mM MgCl2, 1 mM EGTA, and 0.01% Brij-35, 0.01% ovalbumin, 2 mM DTT at pH 7.5, in molecular biology grade water. Store at room temperature.
Assay buffer. Dilute 5× Kinase buffer 5-fold with molecular biology grade water and add DTT to 2 mM and ovalbumin to 0.1 mg/mL (or 0.01%).
2× protein solution. Make a working solution of […] PDGFRβ in assay buffer. Keep on ice until use to maintain enzyme stability.
2× substrate solution. Make a working solution of 1.6 mM ATP and 1 μM TK-substrate biotin peptide in assay buffer. 3× quench/detection solution.
Step 2. PDGFRβ E+I pre-incubation: Add 2 μL 2× protein solution to columns 1-24 using the Multidrop Combi. Centrifuge at 1000 rpm for 1 min. Incubate 30 min at RT
Step 2. Enzymatic reaction: Add 2 μL substrate solution to columns 1-24 to initiate the reaction using the Multidrop Combi; cover/seal the assay plate to reduce evaporation. Centrifuge at 1000 rpm for 1 min. Incubate at room temperature for 3 hours.
Final concentrations of components in PDGFRp cascade assay:
0.5 μM TK-substrate biotin peptide
Step 3. Quench/Detection: Add 2 μl 3× quench/detection solution to columns 1-24 using the Multidrop Combi; cover/seal the plate. Centrifuge 1 min 1000 rpm. Incubate at RT for 60 min.
HTRF ratio values calculated by the instrument (Ratio is acceptor counts/donor counts*10,000) is exported from the plate reader and used in data analysis. The exported data will be used to calculate 1) compound activity and 2) assay statistics. […] Assay statistics can include Robust Z′ and Signal to Background.
% Inhibition Calculation: Percent inhibition will be calculated for sample wells based on the equation: […]
IC50 Calculation: For IC50 determination, full 11-point dose response data will be processed using the following equation: […]

In assay [2] the target is Tb-labeled inactive PDGFRβ (Homo sapiens (Human), UniProt P09619). Briefly: biochemical. The format is binding.

Each structure is given as a SMILES string. Like-named read-outs stand apart in the source and are kept apart here.

With `Cc1ncc(C(=O)NCCN2CC[C@H](C)C2)cc1Nc1nn(C)c2nc(Nc3cncnc3)ncc12` [Example 12, (S)-6-methyl-5-((1-methyl-6-(pyrimidin-5-ylamino)-1H-pyrazolo[3,4-d]pyrimidin-3-yl)amino)-N-(2-(3-methylpyrrolidin-1-yl)ethyl)nicotinamide], the IC50 in assay [1] amounted to 0.48 nM; in assay [2], 5.8 nM.
`Cc1ncc(C(=O)NCCN2CCCC23COC3)cc1Nc1nn(C)c2nc(Nc3cnn(C)c3)ncc12` [Example 18, N-(2-(2-oxa-5-azaspiro[3.4]octan-5-yl)ethyl)-6-methyl-5-((1-methyl-6-((1-methyl-1H-pyrazol-4-yl)amino)-1H-pyrazolo[3,4-d]pyrimidin-3-yl)amino)nicotinamide]: the IC50 in assay [1] came out at 0.51 nM; in assay [2], 2.7 nM.
Consider `Cc1ncc(C(=O)NCCN2CCC3(CCO3)CC2)cc1Nc1nn(C)c2nc(Nc3cnn(C)c3)ncc12` [Example 19, N-(2-(1-oxa-7-azaspiro[3.5]nonan-7-yl)ethyl)-6-methyl-5-((1-methyl-6-((1-methyl-1H-pyrazol-4-yl)amino)-1H-pyrazolo[3,4-d]pyrimidin-3-yl)amino)nicotinamide], for which the IC50 in assay [1] turned out to be 0.52 nM; in assay [2], 4.5 nM.
With `Cc1ncc(C(=O)NCCN2CCC3(CC2)COC3)cc1Nc1nn(C)c2nc(Nc3cnn(C)c3)ncc12` [Example 20, N-(2-(2-oxa-7-azaspiro[3.5]nonan-7-yl)ethyl)-6-methyl-5-((1-methyl-6-((1-methyl-1H-pyrazol-4-yl)amino)-1H-pyrazolo[3,4-d]pyrimidin-3-yl)amino)nicotinamide], the 50% inhibitory concentration (IC50) is 0.51 nM in assay [1] and 4.3 nM in assay [2].
Turning to `Cc1ncc(C(=O)NCCN(C)C2CCOCC2)cc1Nc1nn(C)c2nc(Nc3cnn(C)c3)ncc12` [Example 21, 6-methyl-N-(2-(methyl(tetrahydro-2H-pyran-4-yl)amino)ethyl)-5-((1-methyl-6-((1-methyl-1H-pyrazol-4-yl)amino)-1H-pyrazolo[3,4-d]pyrimidin-3-yl)amino)nicotinamide], the IC50 in assay [1] was found to be 0.43 nM; in assay [2] it was 3.4 nM.
The like results for `COC1CCN(CCNC(=O)c2cnc(C)c(Nc3nn(C)c4nc(Nc5cnn(C)c5)ncc34)c2)CC1` [Example 22, N-(2-(4-methoxypiperidin-1-yl)ethyl)-6-methyl-5-((1-methyl-6-((1-methyl-1H-pyrazol-4-yl)amino)-1H-pyrazolo[3,4-d]pyrimidin-3-yl)amino)nicotinamide] were, in that order, 0.4 nM and 4.2 nM.
As to `Cc1ncc(C(=O)NCCN2CCS(=O)(=O)CC2)cc1Nc1nn(C)c2nc(Nc3cnn(C)c3)ncc12` [Example 23, N-(2-(1,1-dioxidothiomorpholino)ethyl)-6-methyl-5-((1-methyl-6-((1-methyl-1H-pyrazol-4-yl)amino)-1H-pyrazolo[3,4-d]pyrimidin-3-yl)amino)nicotinamide], the IC50 in assay [1] amounted to 0.41 nM; in assay [2], 2.7 nM.
The like results for `Cc1ncc(C(=O)NCCN2CCOCC23CC3)cc1Nc1nn(C)c2nc(Nc3cnn(C)c3)ncc12` [Example 24, N-(2-(7-oxa-4-azaspiro[2.5]octan-4-yl)ethyl)-6-methyl-5-((1-methyl-6-((1-methyl-1H-pyrazol-4-yl)amino)-1H-pyrazolo[3,4-d]pyrimidin-3-yl)amino)nicotinamide] were, in that order, 0.55 nM and 3 nM.
Turning to `COCC1CCCN1CCNC(=O)c1cnc(C)c(Nc2nn(C)c3nc(Nc4cnn(C)c4)ncc23)c1` (stereo not drawn) [Example 25, N-(2-(2-(methoxymethyl)pyrrolidin-1-yl)ethyl)-6-methyl-5-((1-methyl-6-((1-methyl-1H-pyrazol-4-yl)amino)-1H-pyrazolo[3,4-d]pyrimidin-3-yl)amino)nicotinamide], the values for the IC50 in assay [1] and in assay [2] were 0.36 nM and 2.7 nM, respectively.
The like results for `Cc1ncc(C(=O)NCCN2CC3COCC3C2)cc1Nc1nn(C)c2nc(Nc3cnn(C)c3)ncc12` (stereo not drawn) [Example 26, 6-methyl-5-((1-methyl-6-((1-methyl-1H-pyrazol-4-yl)amino)-1H-pyrazolo[3,4-d]pyrimidin-3-yl)amino)-N-(2-(tetrahydro-1H-furo[3,4-c]pyrrol-5(3H)-yl)ethyl)nicotinamide] were, in that order, 0.57 nM and 3.8 nM.
As to `Cn1nc(Nc2cc(C(=O)NCCN3CCCC3(C)C)ccc2F)c2cnc(Nc3ccnnc3)nc21` [Example 50, N-(2-(2,2-dimethylpyrrolidin-1-yl)ethyl)-4-fluoro-3-((1-methyl-6-(pyridazin-4-ylamino)-1H-pyrazolo[3,4-d]pyrimidin-3-yl)amino)benzamide], the IC50 stood at 0.25 nM in assay [1] and 5 nM in assay [2].
The like results for `Cc1ncc(C(=O)NCCN2CCCC23CC3)cc1Nc1nn(C)c2nc(Nc3cnn(C)c3)ncc12` [Example 53, N-(2-(4-azaspiro[2.4]heptan-4-yl)ethyl)-6-methyl-5-((1-methyl-6-((1-methyl-1H-pyrazol-4-yl)amino)-1H-pyrazolo[3,4-d]pyrimidin-3-yl)amino)nicotinamide] were, in that order, 0.48 nM and 3.1 nM.
For `Cc1ncc(C(=O)NCCN2CCOC3(CC3)C2)cc1Nc1nn(C)c2nc(Nc3cnn(C)c3)ncc12` [Example 54, N-(2-(4-oxa-7-azaspiro[2.5]octan-7-yl)ethyl)-6-methyl-5-((1-methyl-6-((1-methyl-1H-pyrazol-4-yl)amino)-1H-pyrazolo[3,4-d]pyrimidin-3-yl)amino)nicotinamide], the values for the IC50 in assay [1] and in assay [2] were 0.43 nM and 3 nM, respectively.
With `Cc1ncc(C(=O)NCCN2CC[C@@H](C)C2)cc1Nc1nn(C)c2nc(Nc3cncnc3)ncc12` [Example 59, (R)-6-methyl-5-((1-methyl-6-(pyrimidin-5-ylamino)-1H pyrazolo-[3,4-d]pyrimidin-3-yl)amino)-N-(2-(3-methylpyrrolidin-1-yl)ethyl)nicotinamide], the IC50 is 0.39 nM in assay [1] (800 μM ATP, 0.5 μM TK-substrate biotin peptide, 30 min pre-incubation, 3 hours reaction, read-out: PDGFR HTRF IC50) and 6.2 nM in assay [2] (read-out: PDGFR Lantha IC50).
As for `Cc1ncc(C(=O)NCCN2CCC3(CCC3)C2)cc1Nc1nn(C)c2nc(Nc3cnn(C)c3)ncc12` [Example 83, N-(2-(6-azaspiro[3.4]octan-6-yl)ethyl)-6-methyl-5-((1-methyl-6-((1-methyl-1H-pyrazol-4-yl)amino)-1H-pyrazolo[3,4-d]pyrimidin-3-yl)amino)nicotinamide], the IC50 worked out at 0.29 nM in assay [1] and 2.3 nM in assay [2].

As a reminder, the IC50 is the concentration needed to halve the response being measured.
